Our source for the IC50 values is ChEMBL document CHEMBL3400105, “Discovery of novel pyrazolopyrimidinone analogs as potent inhibitors of phosphodiesterase type-5” (Bioorg Med Chem, 2015).

Sequences of proteins named here, by UniProt entry; tags and fusion partners are left off. A change or cut given only in a name is not applied to a line headed by its entry.
UniProt O00408, whole entry: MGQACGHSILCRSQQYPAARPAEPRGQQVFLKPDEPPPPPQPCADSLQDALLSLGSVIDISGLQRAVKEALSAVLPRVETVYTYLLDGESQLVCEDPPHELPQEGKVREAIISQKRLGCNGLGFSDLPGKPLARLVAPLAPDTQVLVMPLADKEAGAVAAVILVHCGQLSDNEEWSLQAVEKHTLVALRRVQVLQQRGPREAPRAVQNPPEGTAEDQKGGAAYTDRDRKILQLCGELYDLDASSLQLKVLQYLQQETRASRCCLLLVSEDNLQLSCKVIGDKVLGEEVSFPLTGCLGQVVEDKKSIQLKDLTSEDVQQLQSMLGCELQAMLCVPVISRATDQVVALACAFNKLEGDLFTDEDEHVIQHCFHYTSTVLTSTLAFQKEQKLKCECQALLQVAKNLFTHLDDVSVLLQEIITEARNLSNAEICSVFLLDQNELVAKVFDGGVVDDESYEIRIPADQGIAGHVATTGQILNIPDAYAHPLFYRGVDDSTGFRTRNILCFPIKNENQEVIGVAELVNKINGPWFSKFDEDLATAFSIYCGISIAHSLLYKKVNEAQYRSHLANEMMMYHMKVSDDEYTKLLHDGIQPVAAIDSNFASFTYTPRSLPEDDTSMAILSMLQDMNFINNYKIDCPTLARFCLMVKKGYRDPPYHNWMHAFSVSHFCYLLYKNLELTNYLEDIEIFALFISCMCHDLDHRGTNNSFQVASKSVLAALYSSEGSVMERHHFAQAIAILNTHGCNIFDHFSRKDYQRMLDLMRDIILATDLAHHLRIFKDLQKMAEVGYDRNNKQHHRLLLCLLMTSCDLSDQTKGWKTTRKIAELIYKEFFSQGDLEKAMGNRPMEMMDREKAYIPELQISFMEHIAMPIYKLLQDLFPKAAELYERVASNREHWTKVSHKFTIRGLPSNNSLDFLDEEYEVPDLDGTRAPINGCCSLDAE
UniProt O76083: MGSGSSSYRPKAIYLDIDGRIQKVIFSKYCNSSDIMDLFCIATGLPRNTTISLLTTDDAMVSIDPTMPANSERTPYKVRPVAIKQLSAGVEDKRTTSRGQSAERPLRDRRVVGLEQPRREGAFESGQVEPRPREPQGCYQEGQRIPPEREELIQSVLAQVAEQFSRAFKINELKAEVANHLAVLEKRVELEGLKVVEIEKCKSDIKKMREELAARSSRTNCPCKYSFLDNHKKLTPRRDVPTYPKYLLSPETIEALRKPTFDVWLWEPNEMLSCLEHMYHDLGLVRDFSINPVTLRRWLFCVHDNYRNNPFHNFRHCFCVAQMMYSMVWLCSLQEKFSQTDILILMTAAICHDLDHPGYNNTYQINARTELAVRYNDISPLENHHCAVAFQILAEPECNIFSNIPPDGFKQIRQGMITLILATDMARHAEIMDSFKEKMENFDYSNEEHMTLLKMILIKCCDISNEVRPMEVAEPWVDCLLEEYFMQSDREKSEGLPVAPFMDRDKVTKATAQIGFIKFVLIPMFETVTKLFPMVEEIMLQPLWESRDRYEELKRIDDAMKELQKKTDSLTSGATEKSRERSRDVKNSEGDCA

For experiment [1], the target named is cGMP-dependent 3',5'-cyclic phosphodiesterase (Homo sapiens, UniProt O00408). Kind of experiment: Inhibition of PDE2A1 (unknown origin) using fluorescently labeled cAMP substrate by fluorescence polarization assay. On the technique in general: Fluorescence polarisation rises when a labelled molecule tumbles more slowly, as on binding a larger partner.
In experiment [2] the target is High affinity cGMP-specific 3',5'-cyclic phosphodiesterase 9A (Homo sapiens, UniProt O76083). Nature of the experiment: Inhibition of GST-tagged recombinant human PDE9A2.

Usually IC50 stands for the concentration that inhibits the measured activity by half. As for `CCCc1nn(C)c2c(=O)[nH]c(-c3cc(S(=O)(=O)N4CCN(C)CC4)ccc3OCC)nc12`, the IC50 is 63 µM in experiment [1] and 3.6 µM in experiment [2].
